Literature values as cited in PubChem BioAssay AID977611.

Tests used:
Assay in all cases: PubChem AID 977611
[1] = biological target: Coronatine-insensitive protein 1 with SKP1-like protein 1A (COI1-ASK1); details: PDB protein-ligand complexes, literature Kd; protein: Coronatine-insensitive protein 1 with SKP1-like protein 1A (COI1-ASK1); PDB entry 3OGM
Human p38 MAP Kinase = details: PDB protein-ligand complexes, literature Kd; protein: Human p38 MAP Kinase; PDB entry 3L8S
[2] = biological target: Poly(ADP-ribose) polymerase 3; details: PDB protein-ligand complexes, literature Kd; protein: Poly(ADP-ribose) polymerase 3; PDB entry 3FHB
ORF 17 , KSHV Pr = details: PDB protein-ligand complexes, literature Kd; protein: ORF 17 , KSHV Pr; PDB entry 3NJQ
[3] = biological target: LT1009 (SONEPCIZUMAB) antibody Fab fragment; details: PDB protein-ligand complexes, literature Kd; protein: LT1009 (SONEPCIZUMAB) antibody Fab fragment; PDB entry 3I9G
[4] = biological target: mouse T-cell surface glycoprotein CD1d1; details: PDB protein-ligand complexes, literature Kd; protein: mouse T-cell surface glycoprotein CD1d1; PDB entry 3ILQ
[5] = biological target: Bovine Protein S100-B with Ca2+; details: PDB protein-ligand complexes, literature Kd; protein: Bovine Protein S100-B with Ca2+; PDB entry 3LK1
[6] = biological target: Glutamine-dependent NAD(+) synthetase; details: PDB protein-ligand complexes, literature Kd; protein: Glutamine-dependent NAD(+) synthetase; PDB entry 3DLA
[7] = biological target: Macrophage migration inhibitory factor(MIF); details: PDB protein-ligand complexes, literature Kd; protein: Macrophage migration inhibitory factor(MIF); PDB entry 3IJG
Actin-5C = details: PDB protein-ligand complexes, literature Kd; protein: Actin-5C; PDB entry 3EKS
[8] = biological target: V30M mutant human transthyretin (TTR); details: PDB protein-ligand complexes, literature Kd; protein: V30M mutant human transthyretin (TTR); PDB entry 3NES
[9] = biological target: Wild type human transthyretin (TTR); details: PDB protein-ligand complexes, literature Kd; protein: Wild type human transthyretin (TTR); PDB entry 3NEE
[10] = biological target: human Pi class Glutathione S-transferase GSTP1-1; details: PDB protein-ligand complexes, literature Kd; protein: human Pi class Glutathione S-transferase GSTP1-1; PDB entry 3GUS
[11] = biological target: human Pi class Glutathione S-transferase GSTP1-1(I104A); details: PDB protein-ligand complexes, literature Kd; protein: human Pi class Glutathione S-transferase GSTP1-1(I104A); PDB entry 3IE3
Transthyretin = details: PDB protein-ligand complexes, literature Kd; protein: Transthyretin; PDB entry 3P3R
[12] = biological target: MTA/SAH nucleosidase(Helicobacter pylori MTAN); details: PDB protein-ligand complexes, literature Kd; protein: MTA/SAH nucleosidase(Helicobacter pylori MTAN); PDB entry 3NM6
[13] = biological target: 2-C-methyl-D-erythritol 2,4-cyclodiphosphate synthase; details: PDB protein-ligand complexes, literature Kd; protein: 2-C-methyl-D-erythritol 2,4-cyclodiphosphate synthase; PDB entry 3ELC
[14] = biological target: Heat shock protein HSP 90-alpha; details: PDB protein-ligand complexes, literature Kd; protein: Heat shock protein HSP 90-alpha; PDB entry 3K98
Bos Taurus Arp2/3 = details: PDB protein-ligand complexes, literature Kd; protein: Bos Taurus Arp2/3; PDB entry 3DXK
[15] = biological target: Retinaldehyde-binding protein 1, CRALBP mutant R234W; details: PDB protein-ligand complexes, literature Kd; protein: Retinaldehyde-binding protein 1, CRALBP mutant R234W; PDB entry 3HX3
[16] = biological target: human Nicotinamide phosphoribosyltransferase; details: PDB protein-ligand complexes, literature Kd; protein: human Nicotinamide phosphoribosyltransferase; PDB entry 3DKJ
QAPRTase = details: PDB protein-ligand complexes, literature Kd; protein: QAPRTase; PDB entry 3C2F
[17] = biological target: Agglutinin alpha chain, MPA; details: PDB protein-ligand complexes, literature Kd; protein: Agglutinin alpha chain, MPA; PDB entry 3LM1
[18] = biological target: D-galactose-binding periplasmic protein; details: PDB protein-ligand complexes, literature Kd; protein: D-galactose-binding periplasmic protein; PDB entry 3GA5
[19] = biological target: Tyrosine-protein kinase ABL1-chain A,B; details: PDB protein-ligand complexes, literature Kd; protein: Tyrosine-protein kinase ABL1-chain A,B; PDB entry 3MS9
[20] = biological target: Hepatitis C virus polymerase NS5B (CON1 1-570); details: PDB protein-ligand complexes, literature Kd; protein: Hepatitis C virus polymerase NS5B (CON1 1-570); PDB entry 3FQL
[21] = biological target: Plant pathogenesis-related proteins of class 10(PR-10); details: PDB protein-ligand complexes, literature Kd; protein: Plant pathogenesis-related proteins of class 10(PR-10); PDB entry 3E85
[22] = biological target: F171D mutant of human MMP-12 catalytic domain (Gly106-Gly263); details: PDB protein-ligand complexes, literature Kd; protein: F171D mutant of human MMP-12 catalytic domain (Gly106-Gly263); PDB entry 3LKA
[23] = biological target: BC domain of Acetyl-CoA carboxylase 2; details: PDB protein-ligand complexes, literature Kd; protein: BC domain of Acetyl-CoA carboxylase 2; PDB entry 3JRX
Apoferritin = details: PDB protein-ligand complexes, literature Kd; protein: Apoferritin; PDB entry 3F33
[24] = biological target: catalytic domain of human MMP12; details: PDB protein-ligand complexes, literature Kd; protein: catalytic domain of human MMP12; PDB entry 3LK8
[25] = biological target: Acarbose/maltose binding protein GacH; details: PDB protein-ligand complexes, literature Kd; protein: Acarbose/maltose binding protein GacH; PDB entry 3JZJ
[26] = biological target: Maltose-binding periplasmic protein; details: PDB protein-ligand complexes, literature Kd; protein: Maltose-binding periplasmic protein; PDB entry 3JYR
3LQ2 A + 3LQ2 B = details: PDB protein-ligand complexes, literature Kd; PDB entry 3LQ2
3LQ4 A + 3LQ4 B = details: PDB protein-ligand complexes, literature Kd; PDB entry 3LQ4
[27] = biological target: H-2 class I histocompatibility antigen, K-B alpha chain, H2Kb; details: PDB protein-ligand complexes, literature Kd; protein: H-2 class I histocompatibility antigen, K-B alpha chain, H2Kb; PDB entry 3P9L
[28] = biological target: Phosphoribosyl-aminoimidazole carboxylase; details: PDB protein-ligand complexes, literature Kd; protein: Phosphoribosyl-aminoimidazole carboxylase; PDB entry 3K5I
[29] = biological target: 6-phosphofructokinase isozyme 2,Pfk-2; details: PDB protein-ligand complexes, literature Kd; protein: 6-phosphofructokinase isozyme 2,Pfk-2; PDB entry 3N1C
[30] = biological target: C-terminal effector-binding domain of CggR; details: PDB protein-ligand complexes, literature Kd; protein: C-terminal effector-binding domain of CggR; PDB entry 3BXH

CC[C@@H]1C[C@@H]2C(=O)CC[C@@H]2[C@@H](C(=O)N[C@@]2(C(=O)O)C[C@@H]2CC)C1
Kd [1]: 0.048 µM

NC(=O)c1c(OCc2c(F)cc(Br)cc2F)nsc1NC(=O)NCCCCN1CCCC1
Kd (Human p38 MAP Kinase): 0.099 µM

Nc1cccc(C(=O)O)c1
Kd [2]: 2 µM

O=C(O)c1ccc(NC(=O)c2cccc(CC3CCCCC3)n2)c(Cc2ccccc2)c1
Kd (ORF 17 , KSHV Pr): 13 µM

CCCCCCCCCCCCC/C=C/[C@@H](O)[C@@H](N)COP(=O)(O)O
Kd [3]: 0.0011 µM

CCCCCCCC/C=C\CCCCCCCC(=O)OC[C@H](CO[C@H]1O[C@H](CO)[C@H](O)[C@H](O)[C@H]1O)OC(=O)CCCCCCCCCCCCCCC
Kd [4]: 6.2 µM

O=C(O)c1ccccc1S
Kd [5]: 55.2 µM

Nc1ncnc2c1ncn2[C@@H]1O[C@H](COP(=O)(O)OP(=O)(O)OC[C@H]2O[C@@H]([n+]3cccc(C(=O)[O-])c3)[C@H](O)[C@@H]2O)[C@@H](O)[C@H]1O
Kd [6]: 350 µM

CC(C)c1nn2ccccc2c1C(=O)[C@@H](C)N
Kd [7]: 54 µM

C=C1[C@@H](C)[C@H]2[C@H](Cc3ccccc3)NC(=O)[C@]23[C@H](OC(C)=O)/C=C/[C@@](C)(O)C(=O)[C@@H](C)C/C=C/[C@H]3[C@@H]1O
Kd (Actin-5C): 2 µM

Cc1cc(OCC(=O)O)cc(C)c1Cc1ccc(O)c(C(C)C)c1
Kd [8]: 2.4 µM
Kd [9]: 4.6 µM

O=[N+]([O-])c1ccc(SCCCCCCO)c2nonc12
Kd [10]: 0.9 µM
Kd [11]: 0.21 µM

O=C(c1cc(O)c(O)c([N+](=O)[O-])c1)c1ccccc1F
Kd (Transthyretin): 0.0561 µM

NC(CO)(CO)CO
Kd [12]: 45000 µM

Nc1nc(=O)n([C@@H]2O[C@H](CO)[C@@H](O)[C@H]2O)cc1F
Kd [13]: 2020 µM

CCNC(=O)[C@H]1c2ccccc2CN1C(=O)c1cc(Cl)c(O)cc1O
Kd [14]: < 0.001 µM

Cc1[nH]c2ccccc2c1CCNC(=O)c1cccs1
Kd (Bos Taurus Arp2/3): 0.47 µM

CC1=C(/C=C/C(C)=C/C=C\C(C)=C\C=O)C(C)(C)CCC1
Kd [15]: 0.01 µM

O=P(O)(O)OC[C@H]1O[C@H](OP(=O)(O)OP(=O)(O)O)[C@H](O)[C@@H]1O
Kd [16]: 2 µM
Kd (QAPRTase): 10100 µM

CC(=O)N[C@H]1[C@@H](Oc2ccc([N+](=O)[O-])cc2)O[C@H](CO)[C@H](O)[C@@H]1O
Kd [17]: 20 µM

OC[C@@H](O)CO[C@@H]1O[C@H](CO)[C@H](O)[C@H](O)[C@H]1O
Kd [18]: 3.2 µM

COC(=O)c1ccc(Cl)cc1N
Kd [19]: 6 µM

CNC(=O)c1c(-c2ccc(F)cc2)oc2cc(N(CCO)S(C)(=O)=O)c(C3CC3)cc12
Kd [20]: 0.071 µM

O=C(Nc1ccccc1)Nc1ccccc1
Kd [21]: 4.2 µM

COc1ccc(S(N)(=O)=O)cc1
Kd [22]: 1500 µM

CO[C@H]1CCCC[C@@H](c2ccccc2)OC(=O)[C@@H](C)[C@@]2(O)O[C@H]([C@@H](C)[C@H](O)[C@H]2OC)[C@@H](C)/C=C/[C@H]1OC
Kd [23]: 0.001 µM

CC(C)c1cccc(C(C)C)c1O
Kd (Apoferritin): 460 µM

COc1ccc(S(=O)(=O)NCC(=O)NO)cc1
Kd [24]: 0.0197 µM

C[C@H]1O[C@H](O[C@H]2[C@H](O)[C@@H](O)[C@@H](O[C@H]3[C@H](O)[C@@H](O)[C@@H](O)O[C@@H]3CO)O[C@@H]2CO)[C@H](O)[C@@H](O)[C@@H]1N[C@H]1C=C(CO)[C@@H](O)[C@H](O)[C@H]1O
Kd [25]: 248 µM
Kd [26]: 2.9 µM

Cc1ncc(C[n+]2csc(CCOP(=O)([O-])OP(=O)(O)O)c2C)c(N)n1
Kd (3LQ2 A + 3LQ2 B): 5.97 µM
Kd (3LQ4 A + 3LQ4 B): 5.97 µM

CC[C@H](C)[C@H](NC(=O)[C@@H](NC(=O)[C@@H](N)CO)[C@@H](C)CC)C(=O)N[C@@H](CC(N)=O)C(=O)N[C@@H](Cc1ccccc1)C(=O)N[C@@H](CCC(=O)O)C(=O)N[C@@H](CCCCN)C(=O)N[C@@H](CC(C)C)C(=O)O
Kd [27]: 5 µM

Nc1cncn1[C@@H]1O[C@H](COP(=O)(O)O)[C@@H](O)[C@H]1O
Kd [28]: 20 µM

O=P(O)(O)OC[C@H]1O[C@](O)(CO)[C@@H](O)[C@@H]1O
Kd [29]: 6 µM
Kd [30]: 94.3 µM
